Data on one compound can be found in US20130183237A1 (priority 2007, published 2013).

Amino acid sequences for entries named in this document (tags omitted). Residues count along the entry.
UniProt P00760, 24-246 limits assumed: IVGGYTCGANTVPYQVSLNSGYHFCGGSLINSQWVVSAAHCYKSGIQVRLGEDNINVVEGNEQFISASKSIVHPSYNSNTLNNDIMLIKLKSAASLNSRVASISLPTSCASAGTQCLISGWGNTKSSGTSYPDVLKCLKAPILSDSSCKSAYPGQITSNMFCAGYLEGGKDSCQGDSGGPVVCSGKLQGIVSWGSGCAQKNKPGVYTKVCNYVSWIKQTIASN

This experiment has as its target trypsin (Bos taurus, UniProt P00760). In words: Serine protease specificity: trypsin / S2222. As to conditions: 100 μM of s-variegin.

In the case of `CC[C@H](C)[C@H](NC(=O)[C@H](C)NC(=O)[C@H](CCC(=O)O)NC(=O)[C@H](Cc1ccccc1)NC(=O)[C@H](CC(=O)O)NC(=O)[C@H](Cc1ccccc1)NC(=O)[C@@H]1CCCN1C(=O)[C@@H]1CCCN1C(=O)[C@H](C)NC(=O)[C@@H](NC(=O)[C@H](CCCCN)NC(=O)[C@H](Cc1c[nH]cn1)NC(=O)[C@H](CCSC)NC(=O)[C@H](CCCCN)NC(=O)[C@@H]1CCCN1C(=O)[C@H](CCC(=O)O)NC(=O)[C@H](C)NC(=O)[C@@H](NC(=O)[C@H](CC(=O)O)NC(=O)CNC(=O)[C@H](CCC(N)=O)NC(=O)[C@H](CC(=O)O)NC(=O)[C@@H](N)CO)C(C)C)[C@@H](C)O)C(=O)N1CCC[C@H]1C(=O)N[C@@H](CCC(=O)O)C(=O)N[C@@H](CCC(=O)O)C(=O)N[C@@H](Cc1ccc(O)cc1)C(=O)N[C@@H](CC(C)C)C(=O)N[C@@H](CC(=O)O)C(=O)N[C@@H](CC(=O)O)C(=O)N[C@@H](CCC(=O)O)C(=O)N[C@@H](CO)C(=O)O`, the inhibition of trypsin is on record as 20 to 30%.
